2 compounds from ChEMBL document CHEMBL1255197, “Surface plasmon resonance biosensor based fragment screening using acetylcholine binding protein identifies ligand efficiency hot spots (LE hot spots) by deconstruction of nicotinic acetylcholine receptor α7 ligands” (J Med Chem, 2010) can be followed below.

Protein sequences, listed by entry. Tags and fused reporters are not part of them.
UniProt P36544, whole entry: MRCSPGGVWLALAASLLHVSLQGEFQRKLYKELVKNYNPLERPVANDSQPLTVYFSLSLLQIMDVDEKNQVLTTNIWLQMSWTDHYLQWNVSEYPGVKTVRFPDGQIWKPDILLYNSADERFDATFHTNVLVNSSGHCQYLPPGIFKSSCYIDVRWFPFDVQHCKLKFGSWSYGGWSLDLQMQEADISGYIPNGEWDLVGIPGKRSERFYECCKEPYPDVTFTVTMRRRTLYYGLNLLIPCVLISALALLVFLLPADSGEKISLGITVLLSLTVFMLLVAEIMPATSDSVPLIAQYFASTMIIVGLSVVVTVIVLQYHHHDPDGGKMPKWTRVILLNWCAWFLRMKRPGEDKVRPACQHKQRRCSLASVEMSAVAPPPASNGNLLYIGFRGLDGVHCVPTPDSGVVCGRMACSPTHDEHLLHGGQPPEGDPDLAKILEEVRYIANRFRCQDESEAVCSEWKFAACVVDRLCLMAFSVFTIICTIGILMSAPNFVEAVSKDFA
UniProt P58154, whole entry: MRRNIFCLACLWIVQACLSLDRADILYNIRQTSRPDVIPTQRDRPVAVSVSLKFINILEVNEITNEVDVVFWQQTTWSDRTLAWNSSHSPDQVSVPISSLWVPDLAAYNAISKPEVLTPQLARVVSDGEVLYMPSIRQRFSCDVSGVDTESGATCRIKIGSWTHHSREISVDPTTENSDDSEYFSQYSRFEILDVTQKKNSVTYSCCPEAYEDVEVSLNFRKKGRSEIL

Each structure is given as a SMILES string.

Experiment [1] has as its target Neuronal acetylcholine receptor subunit alpha-7 (Homo sapiens, UniProt P36544). As to the kind of experiment: biochemical.
Experiment [2] has as its target Acetylcholine-binding protein (Lymnaea stagnalis, UniProt P58154).

A word on the Ki: it is the equilibrium dissociation constant of an inhibitor or competing ligand from its target. Read a low Ki as a stronger hold on the target. In turn, `O=C(Nc1ccccc1)O[C@H]1CN2CCC1CC2` showed a Ki in experiment [1] of 1.95 µM.
As usually defined, the Kd is the equilibrium constant for the complex coming apart. Read a low Kd as a tighter complex. On to `CN1CCC[C@H]1c1cccnc1` [NICOTINE], for which, in experiment [2], the dissociation constant Kd is 0.479 µM.
